US10442819B2, “Tricyclic compounds as inhibitors of mutant IDH enzymes” (Merck Sharp & Dohme Corp., priority 2014, dated 2019)
Where two headings read alike, the source gives them in different places.

By UniProt entry, the sequences of proteins in these tests, tags left out.
UniProt O75874, whole entry R132H: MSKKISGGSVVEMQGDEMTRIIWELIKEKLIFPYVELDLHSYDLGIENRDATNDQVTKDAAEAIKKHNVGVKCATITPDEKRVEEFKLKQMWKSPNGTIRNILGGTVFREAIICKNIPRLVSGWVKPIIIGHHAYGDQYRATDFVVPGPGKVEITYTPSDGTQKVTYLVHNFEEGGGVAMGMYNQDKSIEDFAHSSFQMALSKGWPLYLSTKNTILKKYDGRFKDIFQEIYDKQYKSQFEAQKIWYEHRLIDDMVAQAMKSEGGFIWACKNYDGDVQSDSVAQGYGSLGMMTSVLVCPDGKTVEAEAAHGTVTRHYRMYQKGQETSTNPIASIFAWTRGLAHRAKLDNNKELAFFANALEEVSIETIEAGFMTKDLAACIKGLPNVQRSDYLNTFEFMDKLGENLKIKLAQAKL

Target: R132H mutant IDH1 enzyme (Homo sapiens (Human), UniProt O75874, R132H)
Test: R132H IDH1 Enzymatic Assay
Format: biochemical
Conditions: R132H mutant IDH1 enzyme 1.5 nM final
[1] = luminescence readout, read-out: IC50

## COC1CC2(C1)CN(c1ccc3c(c1)N(C(=O)[C@H]1CC[C@H](OC(C)(C)C)CC1)Cc1cccnc1N3)C2 [Example 548, (Trans-4-tert-butoxycyclohexyl)[8-(6-methoxy-2-azaspiro[3.3]hept-2-yl)-5,11-dihydro-6H-pyrido[2,3-b][1,5]benzodiazepin-6-yl]methanone]
[1]
  IC50: 21 nM

## CON=C1CCC(C(=O)N2Cc3cccnc3Nc3ccc(N4CC5CCC(C4)O5)cc32)CC1 (stereo not shown) [Example 549, [4-(Methoxyimino)cyclohexyl][8-(8-oxa-3-azabicyclo[3.2.1]oct-3-yl)-5,11-dihydro-6H-pyrido[2,3-b][1,5]benzodiazepin-6-yl]methanone]
[1]
  IC50: 31 nM

## CCON=C1CCC(C(=O)N2Cc3cccnc3Nc3ccc(N4CCOCC4)cc32)CC1 (stereo not shown) [Example 550, 4-[(8-morpholin-4-yl-5,11-dihydro-6H-pyrido[2,3-b][1,5]benzodiazepin-6-yl)carbonyl]cyclohexanone O-ethyloxime]
[1]
  IC50: 145 nM

## CC(C)ON=C1CCC(C(=O)N2Cc3cccnc3Nc3ccc(N4CCOCC4)cc32)CC1 (stereo not shown) [Example 551, 4-[(8-morpholin-4-yl-5,11-dihydro-6H-pyrido[2,3-b][1,5]benzodiazepin-6-yl)carbonyl]cyclohexanone O-(1-methylethyl)oxime]
[1]
  IC50: 137 nM

## O=C(C1CCN(CC(F)F)CC1)N1Cc2cccnc2Nc2ccc(N3CCOCC3)cc21 [Example 552, [1-(2,2-Difluoroethyl)piperidin-4-yl][8-(morpholin-4-yl)-5,11-dihydro-6H-pyrido[2,3-b][1,5]benzodiazepin-6-yl]methanone]
[1]
  IC50: 930 nM

## O=C(N1CCN(CC(F)(F)F)CC1)N1Cc2cccnc2Nc2ccc(N3CCOCC3)cc21 [Example 553, (8-Morpholino-5,11-dihydro-6H-benzo[b]pyrido[2,3-e][1,4]diazepin-6-yl)(4-(2,2,2-trifluoroethyl)piperazin-1-yl)methanone]
[1]
  IC50: 280 nM

## CC(C)OC1CCN(C(=O)N2Cc3cccnc3Nc3ccc(N4CCOCC4)cc32)CC1 [Example 554, 6-{[4-(1-methylethoxy)piperidin-1-yl]carbonyl}-8-morpholin-4-yl-6,11-dihydro-5H-pyrido[2,3-b][1,5]benzodiazepine]
[1]
  IC50: 294 nM

## CC(C)(C)OC1CCN(C(=O)N2Cc3cccnc3Nc3ccc(N4CCOCC4)cc32)CC1 [Example 555, 6-[(4-tert-butoxypiperidin-1-yl)carbonyl]-8-morpholin-4-yl-6,11-dihydro-5H-pyrido[2,3-b][1,5]benzodiazepine]
[1]
  IC50: 178 nM

## O=C(C1CCN(CC(F)(F)F)CCO1)N1Cc2cccnc2Nc2ccc(N3CCOCC3)cc21 (stereo not shown) [Example 556, (8-Morpholino-5,11-dihydro-6H-benzo[b]pyrido[2,3-e][1,4]diazepin-6-yl)(4-(2,2,2-trifluoroethyl)-1,4-oxazepan-7-yl)methanone]
[1]
  IC50: 390 nM

## CC1(C)CC(C(=O)N2Cc3cccnc3Nc3ccc(N4CCC45CN(C(=O)OC(C)(C)C)C5)cc32)C1 [tert-butyl 1-{6-[(3,3-dimethylcyclobutyl)carbonyl]-6,11-dihydro-5H-pyrido[2,3-b][1,5]benzodiazepin-8-yl}-1,6-diazaspiro[3.3]heptane-6-carboxylate]
Kinase-GLO luminescence, 10-point, 3-fold dilution series, read-out: IDH1 R132H IC50
  IC50: 485 nM
